# Results taken from PubChem BioAssay (EPA / NIEHS).
# The chains behind the UniProt entries cited, without tags or fusion partners. Where a name states a change or a piece, a line headed by the entry shows the natural chain unless it says otherwise.
# UniProt Q5TCH4: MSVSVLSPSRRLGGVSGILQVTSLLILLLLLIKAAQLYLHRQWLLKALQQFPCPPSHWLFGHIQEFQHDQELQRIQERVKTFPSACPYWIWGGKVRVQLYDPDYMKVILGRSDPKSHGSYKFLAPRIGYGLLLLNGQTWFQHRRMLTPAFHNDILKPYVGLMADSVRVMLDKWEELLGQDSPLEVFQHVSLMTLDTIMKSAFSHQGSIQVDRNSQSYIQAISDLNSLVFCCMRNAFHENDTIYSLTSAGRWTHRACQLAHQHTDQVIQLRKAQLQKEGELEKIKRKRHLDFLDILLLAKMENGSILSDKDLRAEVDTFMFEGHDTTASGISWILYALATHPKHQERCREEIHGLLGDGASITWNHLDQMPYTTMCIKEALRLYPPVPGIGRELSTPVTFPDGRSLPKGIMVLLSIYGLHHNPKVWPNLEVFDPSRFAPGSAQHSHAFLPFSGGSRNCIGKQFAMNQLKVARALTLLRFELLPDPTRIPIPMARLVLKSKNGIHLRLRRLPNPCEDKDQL
# The list shows a part of the results, in another mix than the full data. Active and inactive are the calls of the source. How the source made its calls: active means hit-call score of the fitted dose curve at least 0.9, where 1 is the maximum; inactive means score below 0.9.
# Read-out: CYP3A5 (gene 1577)
# Assay: LTEA_HepaRG_CYP3A5: Life Technologies and Expression Analysis (LTEA) Assay for CYP3A5 using HepaRG (AID 2283493)
# Conditions: actives raise or lower the signal; mRNA level, 48 h
# Method in brief: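 Human HepaRG hepatic cells receive 48 h chemical treatment at eight concentrations (half-log steps from 100 uM) in 0.5% DMSO. Expression of CYP3A5 is quantified by Fluidigm qRT-PCR and normalized to three reference genes.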
Structure (SMILES),outcome,AC50
CN(C(=O)Cc1cccc2occc12)[C@H]1CC[C@@]2(CCCO2)C[C@@H]1N1CCCC1,inactive,
Cc1cc([N+](=O)[O-])cc([N+](=O)[O-])c1O,,active: 1.83 µM
CC(C)OP(=S)(OC(C)C)SCCNS(=O)(=O)c1ccccc1,,active: 94.7 µM
O=C1C2CC=CCC2C(=O)N1SC(Cl)(Cl)C(Cl)Cl (stereo unspecified),inactive,

# Read-out: Fatty Acid-Binding Protein 1 (FABP1), FABP1 (gene 2168)
# Assay: LTEA_HepaRG_FABP1: Life Technologies and Expression Analysis (LTEA) Assay for Fatty Acid-Binding Protein 1 (FABP1) using HepaRG (AID 2283494)
# Conditions: actives raise or lower the signal; mRNA level, 48 h
# Method in brief: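 qRT-PCR readout of FABP1 transcript (normalized to three housekeeping genes) after 48 h chemical exposure of HepaRG cells; eight concentrations, half-log steps, max 100 uM, 0.5% DMSO vehicle; gain or loss fitted relative to DMSO baseline.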
Structure (SMILES),outcome,AC50
CN(C(=O)Cc1cccc2occc12)[C@H]1CC[C@@]2(CCCO2)C[C@@H]1N1CCCC1,inactive,
Cc1cc([N+](=O)[O-])cc([N+](=O)[O-])c1O,,active: 7.02 µM
CC(C)OP(=S)(OC(C)C)SCCNS(=O)(=O)c1ccccc1,,active: 74.6 µM

# Read-out: Cytochrome P450 4A22 (Homo sapiens) (UniProt Q5TCH4)
# Assay: LTEA_HepaRG_CYP4A22: Life Technologies and Expression Analysis (LTEA) Assay for Cytochrome P450 4A22 (CYP4A22) using HepaRG (AID 2283495)
# Conditions: actives raise or lower the signal; mRNA level, 48 h
# Method in brief: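 Differentiated HepaRG cells in serum-free induction medium exposed 48 h in duplicate to eight half-log concentrations up to 100 uM in 0.5% DMSO. CYP4A22 mRNA quantified by TaqMan qRT-PCR, normalized to ACTB, GAPDH and POLR2A; bidirectional fit versus DMSO.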
Structure (SMILES),outcome,AC50
CN(C(=O)Cc1cccc2occc12)[C@H]1CC[C@@]2(CCCO2)C[C@@H]1N1CCCC1,inactive,
Cc1cc([N+](=O)[O-])cc([N+](=O)[O-])c1O,,active: 11.1 µM
CC(C)OP(=S)(OC(C)C)SCCNS(=O)(=O)c1ccccc1,,active: 15.8 µM
O=C1C2CC=CCC2C(=O)N1SC(Cl)(Cl)C(Cl)Cl (stereo unspecified),,active: 26.1 µM
